Measurements taken from patent US11202833B2, “Methylglyoxal-scavenging cyclic peptides and their use for the prevention and treatment of diseases associated with elevated methylglyoxal levels” (RUPRECHT-KARLS-UNIVERSITÄT HEIDELBERG, priority 2016, dated 2021).

Test system: human serum albumin (HSA)
Experiment: Competitive inhibition of HSA MG-H1 formation
Format: biochemical
Conditions: FIG. 2B; HSA with MG and scavenger
Procedure: In short, pure MG-1,1-dimethylacetal was heated in sulphuric acid solution for 1 h and fractionally distilled in a column containing glass helices under reduced pressure. Fractions were analyzed by ^1H and ^13C NMR. […] Two parts urea (8M urea, 0.5 M TrisHCl; pH8.0) were added to the solution and the sample was vortexed. HSA was precipitated by addition of two parts acetonitrile (respective to the final sample/urea mixture) and collected by centrifugation for 10′ at 13000 g. […] The HSA containing pellet was dissolved in 20 mM HCl and the protein content was determined by BCA assay. […] The amount of HSA-MG-H1 adduct was determined by LC-MS. Samples and standard curve were spiked with d3-MG-H1 (Polypeptide Group, San Diego, Calif., USA) and derivatized with Fmoc-Cl. Separation was performed on a C18 column (Hypersil Gold aQ; Thermo Scientific, USA) using a 20 min gradient of 0-100% acetonitrile (0.1% TFA) with the first five minutes diverted to waste. Analysis was carried out on an Exactive Orbitrap MS system (Thermo Scientific, USA). […] The calibration range used for the assay was 0-30 pmol.

CN(CC(=O)O)C(=N)N [Cre, creatine]
prevention of HSA-MG-H1 formation: only a trend
